From patent publication US5380761A, “Transdermal compositions” (Chinoin Gyogyszer- ES Vegyeszeti Termekek Gyara RT., priority 1991, dated 1995)
Several values for one entry are separate records, joined by “and”; a condition that tells them apart may be missing. Equal entries are not always repeated.

Legend:
Assay type in all cases: in vivo
MAO-B [1] = assay: MAO-B inhibition in domestic pig brain nucleus free homogenate (14C-PEA substrate); details: p. os 10 mg, 96 h
MAO-B [2] = assay: Inhibition of platelet MAO-B activity in domestic pigs after p. os and transdermal application; details: pig, per os 10 mg, 14C-PEA
MAO-B [3] = assay: MAO-B inhibition in rat liver nucleus free homogenate after s.c. Deprenyl or UG85 plaster; details: 14C-PEA, Deprenyl 1 mg/kg s.c.
Description: (§1) Because of the low dose-demand (5-10 mg/day) of the active ingredient we could not determine the blood-level directly, therefore we determined it partly indirectly by a biochemical method determining the monoamine-oxidase (MAO) inhibiting effect of the active ingredient in the brain and liver tissues, and partly from the quantity of the unabsorbed active ingredient from the plaster by HPLC.
(§2) The aim of these studies was to determine absorption parameters of the transdermal preparations of different composition. As a model, rats and beagle clogs depilated on the required surface were used. The absorption kinetic was followed by determining the quantity of the unabsorbed active ingredient (HPLC). Besides we measured the monoamine oxidase (MAO) inhibiting effect of the absorbed active ingredient in rat brain and liver tissues.
(§3) Test methods: MAO activity of rat brain and liver tissues was determined by the radiometric method of Wurtman and Axelrod (Biochem. Pharmacol. 1963. 12, 1417). The remaining active ingredient content of the plasters removed from the test animals was determined by HPLC. The numerical results were obtained by calibration prepared from different quantities of an ointment.

MAO-B [4] = assay: MAO-B inhibition in rat brain nucleus free homogenate after s.c. Deprenyl or UG85 plaster; details: 14C-PEA, Deprenyl 1 mg/kg s.c.
Description: as §1, §2, §3

C#CCN(C)[C@H](C)Cc1ccccc1 [(-)-Deprenyl]
inhibition of MAO-activity (%) as compared to the control, brain, 14C-PEA (MAO-B [1]): 73.22 ± 8.13% | inhibition of MAO-B activity of the platelets (%) as compared to the control, group mean (MAO-B [2]; time 3 h): 95.15% | inhibition of MAO-B activity of the platelets (%) as compared to the control, individual animal (MAO-B [2]; time 3 h): 97.77% and 92.52% | inhibition of MAO-B activity of the platelets (%) as compared to the control, group mean ±S.D. (n = 3) (MAO-B [2]; time 6 h): 92.73 ± 3.35% | inhibition of MAO-B activity of the platelets (%) as compared to the control, individual animal (MAO-B [2]; time 6 h): 86.04% and 96.51% and 95.63% | inhibition of MAO-B activity of the platelets (%) as compared to the control, group mean ±S.D. (n = 3) (MAO-B [2]; time 24 h): 100 ± 0.0% | inhibition of MAO-B activity of the platelets (%) as compared to the control, individual animal (MAO-B [2]; time 24 h): 100.00% | inhibition of MAO-B activity of the platelets (%) as compared to the control, group mean ±S.D. (n = 3) (MAO-B [2]; time 48 h): 74.36 ± 4.16% | inhibition of MAO-B activity of the platelets (%) as compared to the control, individual animal (MAO-B [2]; time 48 h): 82.67% and 70.48% and 69.93%

C#CCN(C)C(C)Cc1ccccc1 (racemic) [Deprenyl, N-methyl-N-(1-phenyl-2-propyl)-2-propynylamine]
inhibition of MAO-B activity (%) as compared to the control (MAO-B [3]; 1 hour): 63.23 ± 11.98% | inhibition of MAO-B activity (%) as compared to the control (MAO-B [3]; 2 hours): 74.94 ± 1.10% | inhibition of MAO-B activity (%) as compared to the control (MAO-B [3]; 4 hours): 57.63 ± 5.23% | inhibition of MAO-B activity (%) as compared to the control (MAO-B [3]; 6 hours): 67.86 ± 9.22% | inhibition of MAO-B activity (%) as compared to the control (MAO-B [3]; 24 hours): 86.04 ± 7.81% | inhibition of MAO-B activity (%) as compared to the control (MAO-B [3]; 48 hours): 64.34 ± 8.11% | inhibition of MAO-B activity (%) as compared to the control (MAO-B [3]; 72 hours): 68.54 ± 5.25% | inhibition of MAO-B activity (%) as compared to the control (MAO-B [3]; 96 hours): 54.75 ± 11.58% | inhibition of MAO-B activity (%) as compared to the control (MAO-B [3]; 7 days): 56.44 ± 7.59% | inhibition of MAO-B activity (%) as compared to the control (MAO-B [3]; 9 days): 44.26 ± 3.45% | inhibition of MAO-B activity (%) as compared to the control (MAO-B [3]; 11 days): 26.27 ± 15.77% | inhibition of MAO-B activity (%) as compared to the control (MAO-B [3]; 14 days): 24.22 ± 3.13% | inhibition of MAO-B activity (%) as compared to the control (MAO-B [3]; time 0'): 0% | inhibition of MAO-B activity (%) as compared to the control (MAO-B [4]; 1 hour): 79.02 ± 1.58% | inhibition of MAO-B activity (%) as compared to the control (MAO-B [4]; 2 hours): 87.09 ± 2.05% | inhibition of MAO-B activity (%) as compared to the control (MAO-B [4]; 4 hours): 86.74 ± 3.00% | inhibition of MAO-B activity (%) as compared to the control (MAO-B [4]; 6 hours): 83.04 ± 1.46% | inhibition of MAO-B activity (%) as compared to the control (MAO-B [4]; 24 hours): 89.36 ± 2.60% | inhibition of MAO-B activity (%) as compared to the control (MAO-B [4]; 48 hours): 73.59 ± 1.77% | inhibition of MAO-B activity (%) as compared to the control (MAO-B [4]; 72 hours): 76.99 ± 3.38% | inhibition of MAO-B activity (%) as compared to the control (MAO-B [4]; 96 hours): 69.19 ± 3.58% | inhibition of MAO-B activity (%) as compared to the control (MAO-B [4]; 7 days): 32.20 ± 5.45% | inhibition of MAO-B activity (%) as compared to the control (MAO-B [4]; 9 days): 13.56 ± 1.97% | inhibition of MAO-B activity (%) as compared to the control (MAO-B [4]; 11 days): 0.63 ± 0.95% | inhibition of MAO-B activity (%) as compared to the control (MAO-B [4]; 14 days): 0% | inhibition of MAO-B activity (%) as compared to the control (MAO-B [4]; time 0'): 0%
